Data taken from PubChem BioAssay AID1233 (SRMLSC, 2008).
The entries are a selection whose mix differs from that of the whole data set. Measured potencies and affinities stand elsewhere. Active and inactive are the calls of the source.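 Rule for the calls: active = a dose-response curve fit returns a half-maximal inhibitory concentration, extrapolated values included; inactive = the fit returns no such concentration.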

Target: HMG-CoA reductase [Enterococcus faecalis] (UniProt Q9FD70)
Assay: class II HMG-CoA reductase inhibition potency – biochemical, Enterococcus faecalis, confirmation (AID 1233);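 note: 0% = full reaction carrier wells and 100% = background wells lacking mevalonate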
Details: purified E. faecalis HMGR, NADPH absorbance 340 nm kinetics; at 100 µM (top of the series)

How did the inhibition turn out when `CC(C)NC(=O)NP(=O)(Oc1ccccc1)Oc1ccccc1` was run?
Its inhibition is inactive: -1.73%.
